Data reported in patent US7435438B1, “Disinfectant and method of use” (Pure BioScience, priority 2003, dated 2008).

What was measured:
[1] = system: Salmonella cholerasuis strain ATCC 10708
[2] = system: pseudomonas aeruginosa strain ATCC 15442; details: between 15 seconds and 30 minutes
[3] = system: Staphylococcus aureus strain ATCC 6538; details: between 15 seconds and 30 minutes

SMILES: CCO [20% ethanol, ethanol]
- disinfection (in words) ([1]; after 30 minutes of contact time): Near complete disinfection
- disinfection (in words) ([1]; all time periods up to 30 minutes): slow, but complete disinfection
- log10 reduction ([1]; contact time 1 minute, inoculum approx. 1.0×10^6 CFU/mL): ~1.0 log10
- reduction (in words) [2]: no significant reduction
- reduction / effectiveness (in words) [3]: No significant reduction

SMILES: O=C(O)CC(O)(CC(=O)O)C(=O)O [citric acid]
- reduction (in words) [2]: no significant reduction
- reduction / effectiveness (in words) [3]: Neither citric acid nor copper:citric acid was effective

Where two headings read alike, the source gives them in different places.
